The source of these data is PubChem BioAssay AID488788 (Broad Institute, 2010).

Sequences of proteins named here, by UniProt entry; tags and fusion partners are left off.
UniProt Q03530, whole entry: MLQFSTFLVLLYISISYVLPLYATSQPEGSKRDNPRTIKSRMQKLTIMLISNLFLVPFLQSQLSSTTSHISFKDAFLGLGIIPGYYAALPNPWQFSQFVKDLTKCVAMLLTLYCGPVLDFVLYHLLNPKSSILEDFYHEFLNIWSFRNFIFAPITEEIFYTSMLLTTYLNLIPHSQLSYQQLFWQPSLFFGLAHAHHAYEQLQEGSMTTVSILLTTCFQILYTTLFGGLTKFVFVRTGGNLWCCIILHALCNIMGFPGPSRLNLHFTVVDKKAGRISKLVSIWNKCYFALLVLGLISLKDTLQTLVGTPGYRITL

This test has as its target CAAX prenyl protease 2 (Saccharomyces cerevisiae (strain ATCC 204508 / S288c)) (UniProt Q03530). The test is described as follows: Rce1p protease inhibitors, dose response, biochemical, plate reader, cherry-pick (AID 488788). The settings on record: Rce1p enzyme activity, at 10 µM (top of the series).

Only a part is listed here, and it is no random draw. Records with an inconclusive call do not appear. Activity calls are given as the source filed them. How the calls were made is not given here.

Regarding `CN1CCC(Nc2cccc(F)c2)CC1`, the “activity change, negative = inhibition” value is “inactive”.
